{"source": "patent US20170210810A1", "about": "“BIOMARKER PROFILES FOR PREDICTING OUTCOMES OF CANCER THERAPY WITH ERBB3 INHIBITORS AND/OR CHEMOTHERAPIES” (Merrimack Pharmaceuticals, Inc., priority 2013, published 2017)", "origin": "cited, not measured here", "tested_on": "tumors that express EGFR", "settings": "patients whose tumors express EGFR; monotherapy; cited from earlier work", "data": [{"substance": "cetuximab: monoclonal antibody that targets the epidermal growth factor receptor (EGFR)", "values": [{"measurement": "patients who respond", "result": "15-20%"}]}]}
